The test system of this test is men with histologically documented prostate cancer receiving ADT.

From patent US20070135407A1, “Serm reduction of lipid profiles” (priority 2005, published 2007) come the findings set out here.

Consider `CN(C)CCOc1ccc(/C(=C(/CCCl)c2ccccc2)c2ccccc2)cc1` [Toremifene, toremifene], for which the “magnitude of lipid changes elicited by toremifene treatment” value (patients not concomitantly taking statins vs patients taking statins) was “greater in patients who were not concomitantly taking statins”. Besides, the “all serum lipid parameters measured (overall result)” value (patients treated with toremifene 80 mg/day, month 12) was “statistically significant improvement”. For the same compound, the “total circulating cholesterol levels (change)” value (toremifene 80 mg/day, baseline to month 12, compared to placebo, interim analysis of first 197 subjects, p=0.001) was −7.1%. For the same compound, the “LDL levels (change)” value (toremifene 80 mg/day, baseline to month 12, compared to placebo, interim analysis of first 197 subjects, p=0.003) is reported as −9.0%. Further, for the setting “toremifene 80 mg/day, baseline to month 12, compared to placebo, interim analysis of first 197 subjects, p=0.009”, the “triglyceride levels (change)” value is given as −20.1%. Where the note is “toremifene 80 mg/day, baseline to month 12, compared to placebo, interim analysis of first 197 subjects, p=0.018”, the “HDL levels (change)” value is given as “+5.4%”.
